From US7854753B2, “Photokinetic delivery of biologically active substances using pulsed incoherent light” (Photokinetix, Inc., priority 2002, dated 2010)

Assay: Franz skin diffusion cell permeation (percutaneous absorption) under ambient, natural or pulsed incoherent LED light

Ctrl-TiO2/1.7 (Table 8, 405 nm series, 2% TiO2, 1.7 cps): 1341.43
Ctrl-TiO2/9.7 (Table 8, 405 nm series, 2% TiO2, 9.7 cps): 1481.09
Ctrl-TiO2/24 (Table 8, 405 nm series, 2% TiO2, 24 cps): 0.00
405/1.7 (Table 8, 405 nm, 1.7 cps): 0.00
405/9.7 (Table 8, 405 nm, 9.7 cps): 0.00
405/24 (Table 8, 405 nm, 24 cps): 10.61
Structure (SMILES): O=C(O)c1cccnc1 [Compound 6, Nicotinic acid]
